Calls of active or inactive are those of the source. The rule behind the calls is not given here.
Tested on: MCF-7/NOD2 cells, MDP-induced IL-8 secretion
Experiment: NOD2 pathway IL-8 secretion inhibitors – MCF-7/NOD2 cells, MDP stimulus, set 2, SAR follow-up (AID 2503)

With Cc1ccc(S(=O)(=O)n2c(N)nc3ccccc32)cc1 the IC50 was 18.8 µM.

In the case of Nc1nc2ccccc2n1C(=O)c1ccc(Cl)cc1Cl, the IC50 is reported as inactive: > 25 µM.
